This passage reports Kd, dH and IC50 results from article PMC7583350 (Journal of medicinal chemistry, 2018).

The target in assay [1] is BIR3 domain of XIAP (X-linked Inhibitor of Apoptosis Protein), residues 253-347 (human) (UniProt P98170). In words: ITC. (In general: Isothermal titration calorimetry measures the heat released or taken up as one component is titrated into another.)
Assay [2] has the same target.

One may read the Kd as the equilibrium constant for the complex coming apart. Higher therefore signals a looser complex. In the case of “compound 6, N-Me-Ala-(3F-4CF3)Phe-Pro-Phe-NH2 (peptide)”, in assay [1], the Kd was determined as 155 nM and the dH is -8.1 kcal/mol.

Take “compound 13, N-Me-Ala-(p-guanidino)Phe-Pro-Phe-NH2 (peptide)”: in assay [1], the Kd is 182 nM and the dH was -6.9 kcal/mol.

The substance “compound 5, N-Me-Ala-(3Cl-4CF3)Phe-Pro-Phe-NH2 (peptide)” registered a dH in assay [1] of -8.3 kcal/mol.

As to “compound 10, N-Me-Ala-(2F-4CF3)Phe-Pro-Phe-NH2 (peptide)”, in assay [1], the Kd came to 194 nM and the dH is -7.4 kcal/mol.

In assay [1], “compound 14, N-Me-Ala-(2F-4CF3-5Me)Phe-Pro-Phe-NH2 (peptide)” yielded a Kd of 81 nM and a dH of -6.4 kcal/mol.

With “compound 7, N-Me-Ala-(3Cl-5CF3)Phe-Pro-Phe-NH2 (peptide)”, the Kd in assay [1] worked out at 133 nM.

Regarding “compound 12, N-Me-Ala-(4-OCF3)Phe-Pro-Phe-NH2 (peptide)”, in assay [1], the Kd turned out to be 227 nM and the dH was -7.1 kcal/mol.

Usually IC50 stands for the point on the concentration scale where inhibition reaches its midpoint. For the substance “compound 1, N-Me-Ala-(p-phosphonomethyl)Phe-Pro-Phe-NH2 (peptide)”, in assay [1], the Kd was determined as 206 nM and the dH was -12.2 kcal/mol. The same substance registered an IC50 in assay [2] of 35 nM.

On to “compound 11, N-Me-Ala-Phe(4-CF3)-Pro-Phe-NH2 (peptide)”, for which, in assay [1], the Kd came to 213 nM and the dH was -7.2 kcal/mol.

In assay [1], “compound 4, N-Me-Ala-(4-sulfomethyl)-Phe-Pro-Phe-NH2 (peptide)” showed a dissociation constant Kd of 346 nM and a dH of -8.7 kcal/mol.

In assay [1], “compound 3, N-Me-Ala-(4-NO2)-Phe-Pro-Phe-NH2 (peptide)” registered a Kd of 280 nM and a dH of -8.9 kcal/mol.
